Measurements reported in PubChem BioAssay (NCI).
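Tested at 5 concentrations; 48 h exposure; 96-well plates; endpoints linearly interpolated, else capped at highest concentration. GI50 is the concentration that inhibits growth by half. TGI: total growth inhibition.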

What was measured:
Test in all cases: inhibition of tumour cell growth, NCI panel, 48 h
SNB-78 CNS = tested on: SNB-78 CNS
RXF 393 renal = tested on: RXF 393 renal
NCI-H460 lung = tested on: NCI-H460 lung
DLD-1 colon = tested on: DLD-1 colon
SK-MEL-2 melanoma = tested on: SK-MEL-2 melanoma
HCC-2998 colon = tested on: HCC-2998 colon
SN12C renal = tested on: SN12C renal
K-562 leukemia = tested on: K-562 leukemia
DMS 114 small cell lung = tested on: DMS 114 small cell lung
SK-MEL-5 melanoma = tested on: SK-MEL-5 melanoma
CCRF-CEM leukemia = tested on: CCRF-CEM leukemia
TK-10 renal = tested on: TK-10 renal
OVCAR-3 ovarian = tested on: OVCAR-3 ovarian
SF-539 CNS = tested on: SF-539 CNS
HT29 colon = tested on: HT29 colon
A498 renal = tested on: A498 renal
SW-620 colon = tested on: SW-620 colon
OVCAR-8 ovarian = tested on: OVCAR-8 ovarian
SF-268 CNS = tested on: SF-268 CNS
M19-MEL melanoma = tested on: M19-MEL melanoma
OVCAR-5 ovarian = tested on: OVCAR-5 ovarian
LXFL 529 NSCLC = tested on: LXFL 529 NSCLC
RPMI-8226 leukemia = tested on: RPMI-8226 leukemia
A549 NSCLC = tested on: A549 NSCLC
LOX IMVI melanoma = tested on: LOX IMVI melanoma
KM12 colon = tested on: KM12 colon
DMS 273 small cell lung = tested on: DMS 273 small cell lung
HCT-116 colon = tested on: HCT-116 colon
ACHN renal = tested on: ACHN renal
UACC-62 melanoma = tested on: UACC-62 melanoma
HOP-62 NSCLC = tested on: HOP-62 NSCLC
MOLT-4 leukemia = tested on: MOLT-4 leukemia
SNB-19 CNS = tested on: SNB-19 CNS
KM20L2 colon = tested on: KM20L2 colon
EKVX NSCLC = tested on: EKVX NSCLC
IGROV1 ovarian = tested on: IGROV1 ovarian
COLO 205 colon = tested on: COLO 205 colon
NCI-H522 lung = tested on: NCI-H522 lung
MALME-3M melanoma = tested on: MALME-3M melanoma
UACC-257 melanoma = tested on: UACC-257 melanoma
SNB-75 CNS = tested on: SNB-75 CNS
SF-295 CNS = tested on: SF-295 CNS
CAKI-1 renal = tested on: CAKI-1 renal
NCI-H322M lung = tested on: NCI-H322M lung
UO-31 renal = tested on: UO-31 renal
HL-60(TB) leukemia = tested on: HL-60(TB) leukemia
786-0 renal = tested on: 786-0 renal
HCT-15 colon = tested on: HCT-15 colon
XF 498 CNS = tested on: XF 498 CNS
M14 melanoma = tested on: M14 melanoma

## CCCCCCC[CH2][Sn]([CH2]CCCCCCC)([O]c1c([N+](=O)[O-])cc([N+](=O)[O-])cc1[N+](=O)[O-])[O]c1c([N+](=O)[O-])cc([N+](=O)[O-])cc1[N+](=O)[O-]
SNB-78 CNS
  GI50: 3.45 µM
  TGI: 17.8 µM
RXF 393 renal
  GI50: 1.53 µM
  TGI: 3.8 µM
NCI-H460 lung
  GI50: 4.54 µM
DLD-1 colon
  GI50: 3.21 µM
  TGI: 13.3 µM
SK-MEL-2 melanoma
  GI50: 1.75 µM
  TGI: 3.29 µM
HCC-2998 colon
  GI50: 1.39 µM
  TGI: 2.83 µM
SN12C renal
  GI50: 2.11 µM
  TGI: 6.12 µM
K-562 leukemia
  GI50: 1.5 µM
  TGI: 8.67 µM
DMS 114 small cell lung
  GI50: 2.58 µM
  TGI: 8.37 µM
SK-MEL-5 melanoma
  GI50: 1.78 µM
  TGI: 3.73 µM
CCRF-CEM leukemia
  GI50: 1.93 µM
  TGI: 7.94 µM
TK-10 renal
  GI50: 5.24 µM
  TGI: 18.6 µM
OVCAR-3 ovarian
  GI50: 3.05 µM
  TGI: 11.1 µM
SF-539 CNS
  GI50: 2.86 µM
  TGI: 9.92 µM
HT29 colon
  GI50: 4.91 µM
  TGI: 20 µM
A498 renal
  GI50: 2.59 µM
  TGI: 6.45 µM
SW-620 colon
  GI50: 2.05 µM
  TGI: 7.68 µM
OVCAR-8 ovarian
  GI50: 2.69 µM
  TGI: 12.9 µM
SF-268 CNS
  GI50: 3.18 µM
  TGI: 14.9 µM
M19-MEL melanoma
  GI50: 3.19 µM
  TGI: 13.8 µM
OVCAR-5 ovarian
  GI50: 7.03 µM
  TGI: 19.8 µM
LXFL 529 NSCLC
  GI50: 1.61 µM
  TGI: 3.09 µM
RPMI-8226 leukemia
  GI50: 1.23 µM
  TGI: 4.45 µM
A549 NSCLC
  GI50: 12.3 µM
  TGI: 37.1 µM
LOX IMVI melanoma
  GI50: 2.1 µM
  TGI: 5.51 µM
KM12 colon
  GI50: 3.91 µM
  TGI: 16.3 µM
DMS 273 small cell lung
  GI50: 2.93 µM
  TGI: 13.2 µM
HCT-116 colon
  GI50: 2.38 µM
  TGI: 10.1 µM
ACHN renal
  GI50: 6.26 µM
  TGI: 21.2 µM
UACC-62 melanoma
  GI50: 2.05 µM
  TGI: 5.92 µM
HOP-62 NSCLC
  GI50: 1.7 µM
  TGI: 3.36 µM
MOLT-4 leukemia
  GI50: 1.7 µM
  TGI: 5.79 µM
SNB-19 CNS
  GI50: 4.84 µM
  TGI: 20.8 µM
KM20L2 colon
  GI50: 3.59 µM
  TGI: 14.1 µM
EKVX NSCLC
  GI50: 5.41 µM
  TGI: 24.1 µM
IGROV1 ovarian
  GI50: 3.35 µM
  TGI: 16.5 µM
COLO 205 colon
  GI50: 2.17 µM
  TGI: 5.45 µM
NCI-H522 lung
  GI50: 2 µM
  TGI: 6.05 µM
MALME-3M melanoma
  GI50: 1.67 µM
  TGI: 3.42 µM
UACC-257 melanoma
  GI50: 1.59 µM
  TGI: 5.03 µM
SNB-75 CNS
  GI50: 4.71 µM
  TGI: 19.3 µM
SF-295 CNS
  GI50: 4.09 µM
  TGI: 14.7 µM
CAKI-1 renal
  GI50: 3.73 µM
  TGI: 21.3 µM
NCI-H322M lung
  GI50: 5.02 µM
  TGI: 17.3 µM
UO-31 renal
  GI50: 1.56 µM
  TGI: 4.74 µM
HL-60(TB) leukemia
  GI50: 1.71 µM
  TGI: 6.2 µM
786-0 renal
  GI50: 1.44 µM
  TGI: 2.98 µM
HCT-15 colon
  GI50: 3.02 µM
  TGI: 19 µM
XF 498 CNS
  GI50: 2.23 µM
  TGI: 3.84 µM
M14 melanoma
  GI50: 2.32 µM
  TGI: 7.95 µM
